Key:
[1] = Particle size distribution (PSD) of piroctone, Malvern Mastersizer 3000; conditions: volume distribution; average of two measurements; obscuration 0.5% to 1.5%
Procedure: In relation to the particle size distribution measures used herein, d50, d(50) or D50, the median, is defined as the diameter where half of the population lies below this value. Similarly, 10 percent of the population lies below the d10, d(10) or D10 diameter and 90 percent of the population lies below the d90, d(90) or D90 diameter. If not stated otherwise, the d90, d10, d90 values are based on a volume distribution.
The particle size distribution (PSD) was determined as follows: • PSD instrument: Malvern Mastersizer 3000.
Sample preparation and PSD measurement: Desired quantity of about 1 g is put into sample hopper unit and measurement is started with obscuration between 0.5% to 1.5%.
PSD measurements: Every sample is analyzed twice. The values given in the above Table are averages of the two measurements.

[2] = Solubility / dissolution time of piroctone in surfactant-containing formulation (visual check until clear); conditions: 0.5 g piroctone dispersed in approx. 10 g water (demineralized), approx. 45 g Genapol LRO Liquid added, approx. 300 rpm; until solution is clear
Procedure: The solubility of the piroctone of Examples 1 to 4 was tested as follows:
0.5 g Piroctone are dispersed in approx. 10 g water (demineralized). In a next step approx.
45 g Genapol LRO Liquid (which is a surfactant) is added and the solution stirred at approx. 300 rpm. The samples are checked visually, and the time measured until the solution is clear and all solid dissolved.

Structure (SMILES) | d10 [1] [μm] | d50 [1] [μm] | d90 [1] [μm] | Dissolution time [2] [min]
Cc1cc(CC(C)CC(C)(C)C)n(O)c(=O)c1 (stereo not shown) [Example 1] | 13.6 | 57.9 | 129 | 30 to 35
Cc1cc(CC(C)CC(C)(C)C)n(O)c(=O)c1 (stereo not shown) [Example 3] | 8.6 | 33.7 | 82.5 | 20 to 25
Cc1cc(CC(C)CC(C)(C)C)n(O)c(=O)c1 (stereo not shown) [Example 4] | 7.2 | 30 | 76.9 | 20 to 25
Cc1cc(CC(C)CC(C)(C)C)n(O)c(=O)c1 (stereo not shown) [Example 2] | 12 | 49.6 | 120 | 30 to 35

From patent publication US20260384396A1, “PROCESS FOR THE PREPARATION OF PIROCTONE, INCLUDING CRYSTALLIZATION OR PRECIPITATION, PIROCTONE PARTICLES AND PROCESS FOR THE PREPARATION OF PIROCTONE OLAMINE” (published 2026)
